Assay results taken from patent publication US20220118170A1, “SYSTEMS, APPARATUS, AND METHODS FOR ADMINISTERING A SUBSTANCE” (Massachusetts Institute of Technology, priority 2015, published 2022).

Details: 20 kHz, 7.5 W/cm^2; sonicated vs unsonicated, P=0.48

With insulin aspart the “Concentration of active insulin as a result of sonication” value was “No statistical difference”.
